Read-outs that look alike come from different tables or passages of the source.
Tests used:
Experiment in all cases: competition phage ELISA
[1] = biological target: mouse Mcl-1 with truncations of 151 amino acid residues at its N-terminus and 23 residues at its C-terminus (mouse) (UniProt P97287)
Bcl-2 = biological target: Bcl-2
Bcl-w = biological target: Bcl-w
[2] = biological target: mouse Mcl-1 with truncations of 151 amino acid residues at its N-terminus and 23 residues at its C-terminus (mouse) (UniProt P97287); remark: listed apart in the source

Chains of the proteins cited; added tags and fusions are not shown. Residues count along the entry.
UniProt P97287, 152-308: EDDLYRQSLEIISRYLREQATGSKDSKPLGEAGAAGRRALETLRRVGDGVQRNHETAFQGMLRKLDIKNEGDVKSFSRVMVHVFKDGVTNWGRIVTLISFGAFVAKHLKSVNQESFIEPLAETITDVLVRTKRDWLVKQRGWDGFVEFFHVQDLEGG

How did the IC50 [1] turn out when “Bim BH3 wild type, phage-displayed (peptide)” was run?
Its IC50 is 10 nM.

What about the IC50 (Bcl-2) of the same substance?
Its IC50 is 5 nM.

What about the IC50 (Bcl-w) of the same substance?
Its IC50 is 20 nM.

What about the IC50 [2] of the same substance?
The IC50 was 9 nM.
